The target of the assay is T1, mouse MSR1 on RAW264.7 cells (mouse, UniProt P30204 1-458).
T1 construct: whole, on cells; also called MSR1 positive RAW264.7 cells
T1 sequence (looked up): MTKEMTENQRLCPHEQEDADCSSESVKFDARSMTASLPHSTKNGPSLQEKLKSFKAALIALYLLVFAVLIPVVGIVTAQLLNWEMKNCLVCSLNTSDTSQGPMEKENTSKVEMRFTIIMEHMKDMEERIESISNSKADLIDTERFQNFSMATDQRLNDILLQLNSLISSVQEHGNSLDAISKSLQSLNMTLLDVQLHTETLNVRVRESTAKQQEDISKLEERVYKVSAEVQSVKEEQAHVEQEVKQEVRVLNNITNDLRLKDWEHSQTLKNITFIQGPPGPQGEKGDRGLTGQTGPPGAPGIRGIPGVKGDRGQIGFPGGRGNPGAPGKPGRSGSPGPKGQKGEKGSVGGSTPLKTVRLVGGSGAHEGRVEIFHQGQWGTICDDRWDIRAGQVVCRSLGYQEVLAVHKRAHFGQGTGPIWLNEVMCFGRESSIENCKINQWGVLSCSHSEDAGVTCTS
Briefly: flow cytometry, RAW264.7 cells. (Flow cytometry measures light scatter and fluorescence of single cells or particles in a stream.)

This note sets out measurements from patent US20190367631A1 (Regeneron, published 2019).

B1: H1H27771P2-N297Q (antibody, human IgG1, V domains shown)
VH: EVQLVESGGGLVQPGGSLRLSCAASGFTFSSYGMNWVRQAPGKGLEWVSVISGSGGSTYYADSVKGRFTISRDNSKNTLYLQMNSLRAEDTAVYYCAKDRWTYYYDSSGSPFDYWGQGTLVTVSS
VL: not shown
notes: human IgG1 Fc with N297Q; also called H1H27771P-N297Q
In the case of B1, the MFI amounted to 4060 MFI.
